Tested on: luminescent bacteria (e.g. Photobacterium leiognathi, Vibrio fischeri, Vibrio harveyi)
Assay: titration of medium components: luminescence during long term storage at refrigeration temperatures
Type: cell-based
Conditions: based on results of examples 2 through 9
Protocol: In order to identify storage conditions suitable for a long term medium for a suspension of luminescent bacteria (e.g. Photobacterium leiognathi, Vibrio fischeri, Vibrio harveyi) different concentrations of monovalent salts, sugars, sources of divalent cations, protein mixtures, albumins and alcohols were tested.
Each of the medium components (including pH) was tested separately while all other components were kept at a constant concentration as indicated in Table 1. For titration of other components pH was held constant at 7.2. The effect on bacterial luminescence of each component at each tested concentration (or pH value) was determined over a period of several weeks.
In order to perform the titration of the medium components, a bacterial culture was spread on LA plates at about 300 colonies per plate after over night growth. Colonies were collected from plates with ASW and centrifuged (10000 g, 10 minutes, 4° C.). Harvested bacteria were resuspended in the different solutions to form experimental bacterial suspensions.
Experimental bacterial suspensions were stored at −2° C.-+4° C. Each week an aliquot of each experimental bacterial suspension was drawn and diluted in artificial seawater (ASW: 0.5M NaCl, 50 mM MgSO47H2O, 10 mM CaCl22H2O, 10 mM KCl)) supplemented with 50 ppm yeast extract/glucose and incubated at 26° C.-28° C. Light level was recorded after 30 minutes.

For Bovine serum albumin [BSA], the “range I: concentrations that provided a marked improvement over negative control” value was 0.62-1.0%.
